# Source: US9944603B2, “Compounds and methods for the treatment of cystic fibrosis” (Flatley Discovery Lab, LLC, priority 2013, dated 2018)
# The chains behind the UniProt entries cited, without tags or fusion partners. A line that says so, or that is headed by a name, gives the form on record, which may keep a tag or linker.
# UniProt P13569, with tags, fused parts or gaps DEL508-508: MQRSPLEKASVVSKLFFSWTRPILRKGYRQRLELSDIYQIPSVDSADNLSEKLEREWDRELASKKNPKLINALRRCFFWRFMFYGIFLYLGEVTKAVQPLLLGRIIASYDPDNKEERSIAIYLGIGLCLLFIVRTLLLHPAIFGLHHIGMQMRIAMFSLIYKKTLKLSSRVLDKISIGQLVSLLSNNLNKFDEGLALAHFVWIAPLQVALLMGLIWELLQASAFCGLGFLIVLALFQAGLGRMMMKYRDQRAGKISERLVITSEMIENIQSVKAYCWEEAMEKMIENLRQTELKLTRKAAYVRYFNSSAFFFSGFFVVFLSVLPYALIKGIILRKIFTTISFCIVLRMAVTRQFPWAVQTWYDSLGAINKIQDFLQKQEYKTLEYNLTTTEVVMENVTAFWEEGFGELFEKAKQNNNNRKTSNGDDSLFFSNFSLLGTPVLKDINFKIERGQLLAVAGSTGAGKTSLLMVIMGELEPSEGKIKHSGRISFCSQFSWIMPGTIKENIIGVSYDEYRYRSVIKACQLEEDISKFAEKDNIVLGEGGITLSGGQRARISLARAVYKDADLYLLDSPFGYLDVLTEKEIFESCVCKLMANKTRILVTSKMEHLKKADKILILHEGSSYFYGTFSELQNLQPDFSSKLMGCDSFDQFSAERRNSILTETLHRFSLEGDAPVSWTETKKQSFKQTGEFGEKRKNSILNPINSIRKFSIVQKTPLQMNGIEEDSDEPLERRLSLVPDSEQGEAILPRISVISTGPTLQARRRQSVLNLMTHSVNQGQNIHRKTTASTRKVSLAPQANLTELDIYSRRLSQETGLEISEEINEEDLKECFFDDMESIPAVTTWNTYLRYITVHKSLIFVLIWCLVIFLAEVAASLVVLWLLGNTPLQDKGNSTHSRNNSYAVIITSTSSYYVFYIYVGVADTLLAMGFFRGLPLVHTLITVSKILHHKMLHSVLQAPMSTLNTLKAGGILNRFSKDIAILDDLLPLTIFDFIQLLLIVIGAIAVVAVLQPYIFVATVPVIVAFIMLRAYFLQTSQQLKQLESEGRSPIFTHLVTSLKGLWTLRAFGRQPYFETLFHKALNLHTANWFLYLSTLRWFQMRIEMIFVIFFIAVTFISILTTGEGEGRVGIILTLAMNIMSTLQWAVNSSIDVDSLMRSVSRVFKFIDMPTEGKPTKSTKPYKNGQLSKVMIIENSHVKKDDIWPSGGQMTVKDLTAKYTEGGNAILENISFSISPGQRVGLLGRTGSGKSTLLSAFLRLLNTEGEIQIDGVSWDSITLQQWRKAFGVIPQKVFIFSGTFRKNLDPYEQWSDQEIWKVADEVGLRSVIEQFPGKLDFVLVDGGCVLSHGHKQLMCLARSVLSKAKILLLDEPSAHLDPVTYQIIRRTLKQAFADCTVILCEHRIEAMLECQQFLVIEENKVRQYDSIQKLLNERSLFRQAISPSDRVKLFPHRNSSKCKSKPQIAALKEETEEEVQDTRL
# Molecular target: human F508del CFTR (Homo sapiens, UniProt P13569, DEL508-508)
# Assay: CFTR-YFP Assay, CFTR Corrector Protocol (YFP flux assay)
# Assay type: cell-based
row,Compound,EC50 [µM]
1,CCc1ccc(S(=O)(=O)N2CCC(N(C(=O)c3ccccc3Cl)c3ccc(F)cc3)CC2)cc1,10 to 20
2,O=C(c1ccccc1)N(c1ccccn1)C1CCN(S(=O)(=O)c2ccc3c(c2)OCO3)CC1,< 10
3,CCc1ccc(S(=O)(=O)N2CCC(N(C(=O)c3ccccc3)c3ccccn3)CC2)cc1,< 10
4,CCc1ccc(S(=O)(=O)N2CCC(N(C(=O)c3ccccc3Cl)c3ccc(OC)cc3)CC2)cc1,10 to 20
